Ab-14 light chain CDR variants: yeast mating affinities

Source: Li et al. 2023 (doi:10.1038/s41467-023-39022-2), MIT Lincoln Laboratory and A-Alpha Bio; data file from the FLAb repository.

All variants were tested on one target, the spike HR2 peptide PDVDLGDISGINAS (SARS-CoV-2).

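Designed CDR sequences, proposed from the first random library and measured here. Several design methods are mixed in this list. Affinity was read by AlphaSeq, a pooled yeast mating assay with surface-displayed partners. The frequency of each diploid, read from paired DNA barcodes, reflects how well the two displayed proteins bind. Scores were corrected for input abundance and mapped to Kd with protein pairs of known affinity run in the same pool. The assay was run in six technical replicates.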

The variants keep the heavy chain, the linker and the frameworks of Ab-14 (scFv order VH, a 15-residue (Gly4Ser)3 linker, VL).
VH: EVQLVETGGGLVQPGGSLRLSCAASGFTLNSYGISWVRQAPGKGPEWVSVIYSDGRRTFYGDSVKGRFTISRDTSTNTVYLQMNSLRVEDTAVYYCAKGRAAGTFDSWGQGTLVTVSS
VL: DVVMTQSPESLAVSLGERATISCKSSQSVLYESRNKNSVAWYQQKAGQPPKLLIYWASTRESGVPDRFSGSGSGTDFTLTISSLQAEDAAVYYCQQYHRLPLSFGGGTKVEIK

Each variant is given by its three light chain CDRs, as the data file delimits them; those of the parent are KSSQSVLYESRNKNSVA, WASTRES, QQYHRLPLS. Variants here have more than six changes. Values are apparent Kd, the geometric mean of the replicates that gave a signal; lower means stronger binding. A pair that was not seen in any replicate is written "no signal"; this usually means weak binding, but a binder can also be missed. Order: sorted from the lowest average up, undetected variants last. The range of this assay differs from that of the first round, and the authors advise against merging the two.

| CDR-L1 | CDR-L2 | CDR-L3 | Kd | detected |
|---|---|---|---|---|
| KLQISPGYEQRNKNSVA | EASTRCD | QQYHRLPLS | 170 pM | 6 of 6 |
| KMSQSMGYEERNKNSVA | NASQRMS | QQYHRLPLS | 530 pM | 6 of 6 |
| KMEQGDEYESRNKGSVA | GASVRES | QQYHRLPLS | 560 pM | 6 of 6 |
| IISQVDAYESRIKNSIA | DQSTRGS | QQYDRLPLS | 630 pM | 6 of 6 |
| KLQQSVEYQARNQNSVA | SASTRLD | QQYHRLPLS | 730 pM | 6 of 6 |
| QLNHYKHENMAKWQNIA | DMTIREK | QQYAHLPLA | 900 pM | 6 of 6 |
| MMSQVTGMESRQRNNVA | QTSTREA | QQYDRLPLI | 1.0 nM | 6 of 6 |
| KFDQEWPYESRNKNSVA | MASQRCS | QQYHRLPLS | 1.2 nM | 6 of 6 |
| KIGSQVTYESTNKNAIA | QMTTREE | QQYHRLPLS | 1.2 nM | 6 of 6 |
| KFGQSVLMGSYVRNSVA | QSTTREN | QQYDRLPLS | 1.3 nM | 6 of 6 |
| KLHQSDGYESRNKNSVA | AASTRSH | QQYHRLPLS | 1.6 nM | 6 of 6 |
| HVSSMDMEDGGIKHSVA | DMKITER | QQYMRLPLS | 1.7 nM | 6 of 6 |
| KMNGYTLQPNMDHNNVA | HGTMKEA | QQYARIPLM | 1.8 nM | 6 of 6 |
| KLYQMTGIESHAQNSLA | DANRRED | QQYHRLPLS | 1.9 nM | 6 of 6 |
| KLMQMPLYESRNANSVA | NASTREE | QQYHRLPLS | 2.0 nM | 6 of 6 |
| KISMMSTIESITHNSVA | QTSTRES | QQYDRLPLS | 2.0 nM | 6 of 6 |
| KLSQGWLYESRECNQVA | NASQREE | QQYHRLPLS | 2.2 nM | 6 of 6 |
| KVQQSWLYESRNINNVA | NASKRES | QQYHRLPLH | 2.4 nM | 6 of 6 |
| HISYSMEHLSRNKNSVA | NQQTRES | QQYHRLPLS | 2.5 nM | 6 of 6 |
| KIFQSWLMEQRNVNSVA | HASQRLD | QQYHRLPLS | 2.6 nM | 6 of 6 |
| KLPQSYNYESRNKNNVA | SASCRES | QQYHRLPLS | 2.7 nM | 6 of 6 |
| KFANQLVYWNQGQNAIA | DVTNKSA | QQYLRLPLM | 3.2 nM | 6 of 6 |
| TMPQVWMYESRNKNNVA | EMSTRED | QQYFRLPLS | 3.4 nM | 6 of 6 |
| TISQVMNTLTRQGNNVA | DLQEREK | QQYFRLPLS | 4.0 nM | 6 of 6 |
| TLTQTVGMESHNKNSVA | DLSTRGS | QQYHRLPLS | 4.3 nM | 6 of 6 |
| FVQQNFIDGMERQYSVA | ETSRVME | QQYFHLPLI | 4.7 nM | 6 of 6 |
| KIAQSMAITSHHINSVA | QSTTREE | QQYNHLPLS | 4.8 nM | 6 of 6 |
| KIELDLTRYNAGYSAIA | HETQKAQ | QQYSRLPLV | 4.9 nM | 6 of 6 |
| KVQQSMGYESRNKNSVA | EASDRES | QDYHRLPLW | 5.1 nM | 6 of 6 |
| KIMHQHVGNWKTANNIA | QGDQRCQ | QSYDRLPLS | 5.4 nM | 6 of 6 |
| KIGMTLNMLEHKQNNVA | DLVERGN | QQYFRLPLS | 6.0 nM | 6 of 6 |
| NLSIQNQPQNMFANNVA | QTESRCE | QQYFQLPLA | 6.3 nM | 6 of 6 |
| MISQLMNMGSFAINSVA | QAQTRNE | QQYDRLPLI | 6.8 nM | 1 of 6 |
| KISLLINQTFETSNNVA | EMVTREK | QQYHRLPLS | 7.0 nM | 6 of 6 |
| TITQSMLMTSHHMNSVA | HASTRED | QQYHRLPLI | 8.0 nM | 6 of 6 |
| KISGYLNKETKNKNSVA | EMVNRES | QQYDRLPLS | 8.3 nM | 6 of 6 |
| KLQGSNLYGSRNLNSVA | KASTRLQ | QQYHRLPLS | 9.9 nM | 6 of 6 |
| RIQDHMAVGTMSHSSIA | EEATWMD | QQYSRLPLA | 10 nM | 3 of 6 |
| HMSALTLQGMRLRNSVA | QMTTREN | QQYDRLPLA | 11 nM | 6 of 6 |
| MIGQMLGVQSNKIHSVA | QANLRED | QQYDRLPLD | 15 nM | 6 of 6 |
| VLGAEYGNMVMKKNSIA | DNSTRGE | QQYDRLPLS | 20 nM | 5 of 6 |
| KLYMSTGYESRNADSIA | DNSTRGR | QQYHRLPLS | 21 nM | 6 of 6 |
| MISQLYNMGQFAINSVA | QASQRCE | QQYDRLPLI | 31 nM | 6 of 6 |
| MISQLYNMGQFAINSVA | QASIRNE | QQYDRLPLE | 42 nM | 6 of 6 |
| KISSLTNYESVNYNSVA | EMSTRPS | QSYHRLPLS | 52 nM | 6 of 6 |
| IIDQIMFHGNKRANSIA | QASQRVN | QQYHHLPLT | 54 nM | 4 of 6 |
| KWSQSVPMGDRNKNSVA | MAHKRES | QQYHRLPLS | 55 nM | 6 of 6 |
| NLSDGDMYHNATRSAVA | NTSMRDF | QQYNRLPLD | 59 nM | 5 of 6 |
| KLRQLTHIESFNKNNVA | EMTTREV | QSYDRLPLS | 64 nM | 6 of 6 |
| HMSMLTLQGMRHKNSVA | QMTTREN | QQYDHLPLS | 64 nM | 6 of 6 |
| NMNVSEDQWPVSKNAIA | QDTLRNL | QQYASLPLS | 71 nM | 4 of 6 |
| MIYGAQRELGLAANSIA | DNVTRYE | QQYERLPLS | 95 nM | 6 of 6 |
| MVGQGLMGESRAKNSIA | HASLRFD | QQYHRLPLI | 96 nM | 6 of 6 |
| SLDMLLNQVYAYGSNIA | NAQVLVY | QQYYRLPLV | 110 nM | 2 of 6 |
| NVRDSLGYVQNVGSAVA | EASQVEM | QQYYTLPLT | 140 nM | 3 of 6 |
| VLMGWGADSIQHANSVA | DADEVDM | QQYAHLPLS | 850 nM | 5 of 6 |
| TITEFMGNLSQNRNSVA | DTSTSGD | QSYDRLPLS | 1.3 µM | 4 of 6 |
| QLQLVQNGDTISEYSVA | HAEVSGR | QQYSQLPLI | no signal | 0 of 6 |
| IVSQIMLWGMHLKNSIA | EAQTRLN | QQYDRLPLF | no signal | 0 of 6 |
| KIQWYPLEFRGTIQAVA | EAATRYN | QQYMRLPLM | no signal | 0 of 6 |

The last 6 entries again:

| CDR-L1 | CDR-L2 | CDR-L3 | Kd | detected |
|---|---|---|---|---|
| NVRDSLGYVQNVGSAVA | EASQVEM | QQYYTLPLT | 140 nM | 3 of 6 |
| VLMGWGADSIQHANSVA | DADEVDM | QQYAHLPLS | 850 nM | 5 of 6 |
| TITEFMGNLSQNRNSVA | DTSTSGD | QSYDRLPLS | 1.3 µM | 4 of 6 |
| QLQLVQNGDTISEYSVA | HAEVSGR | QQYSQLPLI | no signal | 0 of 6 |
| IVSQIMLWGMHLKNSIA | EAQTRLN | QQYDRLPLF | no signal | 0 of 6 |
| KIQWYPLEFRGTIQAVA | EAATRYN | QQYMRLPLM | no signal | 0 of 6 |

The authors' rule: three or more of the six replicates give a measured affinity, fewer mean a poor binder. The parent sequence was in this pool as ten entries: three were never detected, three once, and four in most replicates, with averages from 2.2 nM to 240 nM. Nonspecific signal, from three strains lacking the peptide, appeared in 4% of pairings of all light chain designs, centred on 430 nM (5% of these signals below 38 nM); values are not corrected for it.